The source of these data is PMC3711744 (The Journal of neuroscience : the official journal of the …, 2013).

The target in the experiment is purified mGluR1a-CT (rat, UniProt P23385 841-1199). As to the kind of experiment: pull-down.

B1: GST-CaMKIIα-CD(L91-S272) (domain or fragment, UniProt P11275 91-272, looked up)
chain: LVTGGELFEDIVAREYYSEADASHCIQQILEAVLHCHQMGVVHRDLKPENLLLASKLKGAAVKLADFGLAIEVEGEQQAWFGFAGTPGYLSPEVLRKDPYGKPVDLWACGVILYILLVGYPPFWDEDQHRLYQQIKAGAYDFPSPEWDTVTPEAKDLINKMLTINPSKRITAAEALKHPWIS
Turning to B1, the binding result is reported as “binds”.
